The list shows a part of the results, in another mix than the full data. Activity calls are given as the source filed them.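 Rule for the calls: active = mean activation across replicates above 26.72%, the hit cutoff set for this confirmation screen; inactive = the rest.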

Protein sequences, listed by entry. Tags and fused reporters are not part of them.
UniProt Q8TDV0, whole entry: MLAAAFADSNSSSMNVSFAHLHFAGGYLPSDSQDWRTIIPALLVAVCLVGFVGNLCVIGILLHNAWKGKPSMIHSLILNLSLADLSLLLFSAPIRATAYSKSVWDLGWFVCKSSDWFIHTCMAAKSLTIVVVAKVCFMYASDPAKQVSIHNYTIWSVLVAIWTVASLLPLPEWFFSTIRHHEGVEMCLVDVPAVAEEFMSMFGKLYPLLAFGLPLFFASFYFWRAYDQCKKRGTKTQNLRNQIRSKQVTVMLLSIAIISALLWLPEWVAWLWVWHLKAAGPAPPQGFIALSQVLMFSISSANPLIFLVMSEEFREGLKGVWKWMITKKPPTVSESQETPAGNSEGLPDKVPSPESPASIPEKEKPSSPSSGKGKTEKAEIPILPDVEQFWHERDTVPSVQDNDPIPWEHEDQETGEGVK

The target of this test is G-protein coupled receptor 151 (Homo sapiens) (UniProt Q8TDV0). Put plainly: GPR151 agonism via beta-arrestin recruitment – cell-based, PathHunter beta-arrestin, luminescence, set 2, confirmation (AID 1508608).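 Note: 0% = plate median of compound wells and 100% = EA reagent high control.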 As to conditions: GPR151 PathHunter beta-arrestin cells, 90 min, at 11.2 µM, active compounds read high, 100% = signal from added EA reagent. Background: Arrestin recruitment assays detect the binding of arrestin to an activated receptor.
With `CCCN1CCC(Nc2ccc(Cl)cc2)CC1`, the activation was inactive: 7.14%.
